Our source for the IC50 values is patent US6479487B1, “6, 9-disubstituted 2-[trans-(4-aminocyclohexyl)amino] purines” (Aventis Pharmaceuticals Inc., priority 1998, dated 2002).

Protein sequences, listed by entry. Tags and fused reporters are not part of them. Lines headed by an entry give the natural chain unless they say otherwise; changes in a name come on top.
UniProt P11802: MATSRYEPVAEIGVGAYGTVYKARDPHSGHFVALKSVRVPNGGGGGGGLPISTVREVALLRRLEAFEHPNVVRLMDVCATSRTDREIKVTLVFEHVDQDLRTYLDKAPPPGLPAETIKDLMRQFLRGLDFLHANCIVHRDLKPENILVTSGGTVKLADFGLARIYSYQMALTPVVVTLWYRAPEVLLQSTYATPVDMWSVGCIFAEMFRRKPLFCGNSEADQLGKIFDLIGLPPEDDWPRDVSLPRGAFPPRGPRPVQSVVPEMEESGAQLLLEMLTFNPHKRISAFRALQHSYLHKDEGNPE

Where only a bound is given, the exact number is not on record here.

This assay concerns the target T1, cdk4/cyclin D1 (Homo sapiens, UniProt P11802).
T1 construct: made in house; host or cells: Sf9 insect cells (Bac-to-Bac baculovirus, pFastBac)
Nature of the assay: Cyclin-dependent Kinase 4 Assay (cdk4/cyclin D1, GST-Rb substrate). The format is biochemical. As to conditions: CDK4 Inhibition IC50 (μM), cdk4/cyclin D1 insect cell lysate, 10 μM ATP, 30 min at 37° C., several values = separate determinations.

Molecule `Cn1cnc2c(NCc3ccccc3)nc(NCCO)nc21` [Olomoucine, 6-(benzylamino)-2-[(2-hydroxyethyl)amino]-9-methylpurine, reference compound] came in with an IC50 greater than 1000 µM.
